Columns and labels:
[1] = test system: transplanted tumor in S180 sarcoma-bearing KM mice; assay: In vivo inhibitory effect of chlorogenic acid on S180 sarcoma transplantation in KM mice (Experimental example 1); set-up: species or system mouse; key: V = 0.52 × L × W² (long × shortest diameter²), in cm³; conditions: 7 d after inoculation; intraperitoneally, once a day, 2 mg/kg; x ± s, n = 10
Description: (§1) KM mice, half male and half female, weighing 17-24 g.
S180 cell lines were mouse sarcoma cells, and suspendedly grew in DH medium, containing 20% calf serum, 1 mmol/L glutamine, 100 U·ml^−1 penicillin, and 100 μg·ml^−1 streptomycin, then cultured in 37° C. 5% CO2, saturated humidity incubator. The medium was changed every 2-3 days for passage.
S180 cells in the logarithmic growth phase were harvested, centrifuged at 1000 rpm for 5 min, washed twice, and the number of viable cells was counted by trypan blue staining. The cells were inoculated into the abdominal cavity of KM mice as soon as possible, and these mice were used as breeding mice. 2) In vivo experiment The ascites was extracted from 7 to 10 days, and the number of cells was adjusted to (about 1×10^6 cells) after dilution. The cell suspension in ascites was inoculated subcutaneously in the axillary of the left forelimb of the mice at 0.2 ml/animal.
Negative group: intraperitoneally injected, once a day, receiving an equal volume of normal saline. On the 5th day after inoculation, the tumor volume was measured (V=0.52×L (the long diameter of the transplanted tumor)×W^2 (the shortest diameter of the transplanted tumor)), and the mice were weighed every three days. […] The mice were sacrificed by cervical vertebra luxation and weighed, the tumor was removed, and the tumor inhibitory rate was calculated. […]

[2] = test system: transplanted tumor in S180 sarcoma-bearing KM mice; assay: In vivo inhibitory effect of chlorogenic acid composition on S180 sarcoma transplantation in KM mice (Experimental example 2); set-up: species or system mouse; key: tumor volume V=0.52×L×W² (long × shortest diameter²); conditions: time after inoculation printed 94; intraperitoneally, once a day, 2 mg/kg; x ± s, n = 10
Description: S180 sarcoma transplantation in KM mice
as §1
S180 cell lines were mouse sarcoma cells, and suspendedly grew in DH medium, containing 20% calf serum, 1 mmol/L glutamine, 100 U·ml^−1 penicillin, and 100 μg·ml^−1 streptomycin, then cultured in 37° C., 5% CO2, saturated humidity incubator. The medium was changed every 2-3 days for passage.
S180 cells in the logarithmic growth phase were harvested, centrifuged at 1000 rpm for 5 min, washed twice, and the number of viable cells was counted by trypan blue staining. The cells were inoculated into the abdominal cavity of KM mice as soon as possible, and these mice were used as breeding mice.
The ascites was extracted from 7 to 10 days, and the number of cells was adjusted to (about 1×10^6 cells) after dilution. The cell suspension in ascites was inoculated subcutaneously in the axillary of the left forelimb of the mice at 0.2 ml/animal. […] Coumaroylquinic acid group: intraperitoneally injected, once a day, at a dose of 30 mg·kg^−1. […]
On the 5th day after inoculation, the tumor volume was measured (V=0.52×L (the long diameter of the transplanted tumor)×W^2 (the shortest diameter of the transplanted tumor)), and the mice were weighed every three days. […] The mice were sacrificed by cervical vertebra luxation and weighed, the tumor was removed, and the tumor inhibitory rate was calculated. […]

COc1cccc2c1C(=O)c1c(O)c3c(c(O)c1C2=O)C[C@@](O)(C(=O)CO)C[C@@H]3O[C@H]1C[C@H](N)[C@H](O)[C@H](C)O1 [ADM, adriamycin, reference compound]
growth volume of transplanted tumor [1]: 0.148 ± 0.066 | growth volume of transplanted tumor [2]: 0.231 ± 0.053

Source: patent US12150926B2 (SICHUAN JIUZHANG BIOLOGICAL SCIENCE AND TECHNOLOGY CO., LTD., priority 2018, dated 2024)
